{"sequences": {"note": "By UniProt entry, the sequences of proteins in these tests, tags left out.", "UniProt P35367, whole entry": "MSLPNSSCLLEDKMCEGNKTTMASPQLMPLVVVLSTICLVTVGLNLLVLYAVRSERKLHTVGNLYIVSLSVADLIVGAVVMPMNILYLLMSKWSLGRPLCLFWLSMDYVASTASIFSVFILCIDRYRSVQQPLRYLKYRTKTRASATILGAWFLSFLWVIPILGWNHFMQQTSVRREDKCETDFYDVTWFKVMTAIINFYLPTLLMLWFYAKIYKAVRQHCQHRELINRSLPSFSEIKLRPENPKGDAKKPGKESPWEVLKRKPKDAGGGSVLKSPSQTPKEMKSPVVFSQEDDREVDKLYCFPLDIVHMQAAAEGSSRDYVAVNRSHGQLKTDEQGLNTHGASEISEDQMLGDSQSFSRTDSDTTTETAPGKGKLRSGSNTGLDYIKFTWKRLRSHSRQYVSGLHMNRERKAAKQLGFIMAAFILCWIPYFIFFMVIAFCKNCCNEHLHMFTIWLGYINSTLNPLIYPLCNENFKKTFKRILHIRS"}, "source": "ChEMBL document CHEMBL4673287", "about": "“Synthesis and biological evaluation of novel antipsychotic trans-4-(2-(1,2,4,5-tetrahydro-3H-benzo[d]azepin-3-yl)ethyl)cyclohexan-1-amine derivatives targeting dopamine/serotonin receptor subtypes” (Bioorg Med Chem Lett, 2021)", "data": [{"target": "Histamine H1 receptor (Homo sapiens, UniProt P35367)", "test": "Displacement of [3H]-pyrilamine from human H1 histamine receptor expressed in human HEK293 cells", "assay_type": "cell-based", "units": {"Ki": "nM"}, "values": [{"smiles": "C[C@H]1CN(CC[C@H]2CC[C@H](N3C(=O)[C@@H]4[C@@H]5CC[C@@H](C5)[C@@H]4C3=O)CC2)CCc2ccc(Cl)cc21", "Ki": 195}, {"smiles": "C[C@H]1CN(CC[C@H]2CC[C@H](N3C(=O)CC4(CCCC4)CC3=O)CC2)CCc2ccc(Cl)cc21", "Ki": 293}, {"smiles": "C[C@H]1CN(CC[C@H]2CC[C@H](N3C(=O)[C@@H]4[C@H](C3=O)[C@@H]3C=C[C@H]4C3)CC2)CCc2ccc(Cl)cc21", "Ki": 312}, {"smiles": "C[C@H]1CN(CC[C@H]2CC[C@H](NC(=O)c3ccco3)CC2)CCc2ccc(Cl)cc21", "Ki": 82.1}]}]}
